Data from US10280198B2, “Therapeutic agents for reducing parathyroid hormone levels” (KAI PHARMACEUTICALS, INC., priority 2009, dated 2019).

Biological target: T1, human calcium-sensing receptor (CaSR) (Homo sapiens, UniProt P41180)
T1 construct: expressed in transfected cells; host or cells: HEK 293T cells, transiently transfected (lipofectamine 2000); in some cases HEK293 cells stably transfected
T1 sequence (P41180 20-1078): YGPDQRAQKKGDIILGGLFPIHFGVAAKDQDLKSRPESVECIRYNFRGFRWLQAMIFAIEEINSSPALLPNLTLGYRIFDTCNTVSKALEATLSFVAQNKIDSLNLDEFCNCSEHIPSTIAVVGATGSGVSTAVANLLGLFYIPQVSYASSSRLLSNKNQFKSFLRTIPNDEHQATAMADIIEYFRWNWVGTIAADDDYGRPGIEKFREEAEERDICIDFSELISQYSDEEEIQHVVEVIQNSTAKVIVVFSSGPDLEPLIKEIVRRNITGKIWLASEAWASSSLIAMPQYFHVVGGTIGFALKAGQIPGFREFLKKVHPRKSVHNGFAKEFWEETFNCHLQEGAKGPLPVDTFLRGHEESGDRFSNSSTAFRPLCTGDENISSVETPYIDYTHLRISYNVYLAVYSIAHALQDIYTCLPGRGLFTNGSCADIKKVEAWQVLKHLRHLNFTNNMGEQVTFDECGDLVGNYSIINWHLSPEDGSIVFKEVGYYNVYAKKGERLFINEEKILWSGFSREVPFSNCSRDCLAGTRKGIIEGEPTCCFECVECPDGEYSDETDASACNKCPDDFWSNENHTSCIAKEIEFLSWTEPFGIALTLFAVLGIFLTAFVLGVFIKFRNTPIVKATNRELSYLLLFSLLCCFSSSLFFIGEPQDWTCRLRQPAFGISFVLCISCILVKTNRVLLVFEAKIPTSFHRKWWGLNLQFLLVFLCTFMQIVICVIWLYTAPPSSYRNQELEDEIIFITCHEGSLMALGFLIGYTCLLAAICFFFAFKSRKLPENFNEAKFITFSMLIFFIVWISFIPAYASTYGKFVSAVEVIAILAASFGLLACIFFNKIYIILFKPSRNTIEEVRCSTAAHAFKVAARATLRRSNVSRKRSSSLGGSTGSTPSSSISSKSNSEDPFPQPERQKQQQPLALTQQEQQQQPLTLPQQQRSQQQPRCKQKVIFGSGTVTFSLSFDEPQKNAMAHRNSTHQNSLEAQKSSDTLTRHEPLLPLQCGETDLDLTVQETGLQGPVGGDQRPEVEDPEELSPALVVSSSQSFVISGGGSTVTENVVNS
Experiment: In vitro cell assay in HEK-293 expressing the human calcium-sensing receptor (IP1 production)
Format: cell-based
Description: The activity of a variety of peptides and conjugates was tested against the human CaSR. These studies were conducted by measuring IP1 production in HEK293 cells that express the human CaSR. Each peptide was tested in eight different concentrations, in duplicates, to establish a dose response curve. Curve fitting was performed using GraphPad Prism. In Table 5, and throughout the specification, residues provided in capital letters are L-amino acids, while lower case letters indicate D-amino acids. “Ac” indicates an acetyl capping group, “NH2” indicates an amide capping group, “Ac-bAla” is an acetylated beta-alanine, “GSH” indicates reduced glutathione, “GS” indicates oxidized glutathione, “PEG” refers to polyethylene glycol, “PEG2” and “PEGS” refer to polyethylene glycol moieties of 2 kDa and 5 kDa, respectively, and “Mpa” refers to mercaptopropionic acid.
The day after, these cells were transfected with human CaSR receptor using lipofectamine 2000 transfection reagent 24 hrs post transfection, cells were seeded in 384 well plates at 8,000 cells/well. […] In some cases, EC50 values were determined by measuring inositol monophosphate production in the HEK293 cells, stably transfected with the human calcium-sensing receptor (see Table 1).
Cells were incubated with compounds at various concentrations (1 mM or 300 μM as the highest and further ½ log serial dilutions) at 37° C. for 1.5 hrs before reaction termination. […] In brief, incubation with the compound was terminated by sequentially adding D2 labeled-IP1 and cryptate-labeled anti-IP1 in lysis buffer and further incubating at room temperature for 60 minutes. […] Non-transfected 293 cells were used as negative control.
IP1 concentrations were calculated from standard curves (generated with Graph Pad Prism ver. 4) using known concentrations of IP1 standards.

`CC(=O)N[C@H](CS)C(=O)NCC(=O)N[C@H](CCCNC(=N)N)C(=O)N[C@H](CCCNC(=N)N)C(=O)N[C@H](CCCNC(=N)N)C(=O)NCC(=O)N[C@H](CCCNC(=N)N)C(N)=O` [SEQ ID NO: 42, Ac-cGrrrGr-NH2] was tested, and the “fold decrease in potency relative to Ac-carrrar-NH2 (SEQ ID NO:26)” value (human CaSR, HEK293) was under 8 fold.

`N=C(N)NCCC[C@@H](NC(=O)[C@@H](CCCNC(=N)N)NC(=O)[C@@H](CCCNC(=N)N)NC(=O)[C@@H](CCCNC(=N)N)NC(=O)[C@@H](CCCNC(=N)N)NC(=O)[C@@H](CCCNC(=N)N)NC(=O)[C@H](N)CSSC[C@@H](N)C(=O)N[C@H](CCCNC(=N)N)C(=O)N[C@H](CCCNC(=N)N)C(=O)N[C@H](CCCNC(=N)N)C(=O)N[C@H](CCCNC(=N)N)C(=O)N[C@H](CCCNC(=N)N)C(=O)N[C@H](CCCNC(=N)N)C(N)=O)C(N)=O` [SEQ ID NO: 51] was tested, and the EC50 was 0.44 µM.

`CC(=O)N[C@H](CS)C(=O)N[C@H](CCCNC(=N)N)C(=O)N[C@H](CCCNC(=N)N)C(=O)N[C@H](CCCNC(=N)N)C(=O)N[C@H](CCCNC(=N)N)C(N)=O` [SEQ ID NO: 4, Ac-crrrr-NH2] was tested, and the EC50 (Table 5, IP1 production in HEK293 cells expressing human CaSR, eight concentrations in duplicate, read-out: EC50 in CaSR in vitro assay) was 16 µM.

Like-named read-outs stand apart in the source and are kept apart here.
